Among the data in ChEMBL document CHEMBL3853340, “Dihydropyrimidinones and -thiones with improved activity against human polyomavirus family members” (Bioorg Med Chem Lett, 2016) are fold change (FC) values, retold here.

Protein sequences, listed by entry. Tags and fused reporters are not part of them.
UniProt P03070, whole entry: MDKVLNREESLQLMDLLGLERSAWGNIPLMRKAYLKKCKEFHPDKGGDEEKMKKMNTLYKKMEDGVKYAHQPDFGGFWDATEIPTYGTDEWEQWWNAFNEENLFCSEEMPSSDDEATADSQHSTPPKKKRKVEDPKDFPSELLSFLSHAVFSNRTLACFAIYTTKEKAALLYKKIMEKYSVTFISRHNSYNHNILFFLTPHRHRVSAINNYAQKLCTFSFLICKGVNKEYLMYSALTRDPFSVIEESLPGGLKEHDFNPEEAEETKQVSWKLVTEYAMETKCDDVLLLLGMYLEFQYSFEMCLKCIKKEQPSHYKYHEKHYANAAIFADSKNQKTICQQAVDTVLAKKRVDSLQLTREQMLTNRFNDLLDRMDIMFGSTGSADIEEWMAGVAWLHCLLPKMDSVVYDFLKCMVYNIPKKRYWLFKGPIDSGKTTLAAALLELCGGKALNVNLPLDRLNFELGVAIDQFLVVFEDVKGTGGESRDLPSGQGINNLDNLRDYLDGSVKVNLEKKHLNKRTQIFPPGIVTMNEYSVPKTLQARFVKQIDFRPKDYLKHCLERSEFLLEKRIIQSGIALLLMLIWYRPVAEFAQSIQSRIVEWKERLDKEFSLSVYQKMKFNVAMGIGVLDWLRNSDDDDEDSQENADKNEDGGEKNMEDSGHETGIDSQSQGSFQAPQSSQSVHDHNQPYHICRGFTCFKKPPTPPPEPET

For assay [1], the system named is Homo sapiens. The experiment in a line: Inhibition of human Hsp70 expressed in Escherichia coli BL21(DE3) assessed as suppression of Hdj2-activated ATPase activity at 100 uM dosed 15 mins after Hsp70 and Hdj2 pre-incubation and measured after 60 mins by TLC based steady state ATPase assay relative to control. The format is organism-based. In short, it runs like this: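 Hsp70 ATPase activity measured with Hdj2 (Hsp40) at a 1:0.5 Hsp70:Hsp40 molar ratio. Activity was normalized to DMSO-matched reactions lacking compound. Values are the means of three independent experiments.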

Assay [2] is filed under the species Homo sapiens. The experiment in a line: Inhibition of human Hsp70 expressed in Escherichia coli BL21(DE3) assessed as suppression of ATPase activity at 100 uM after 60 mins by TLC based steady state ATPase assay relative to control. In short, it runs like this: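 Hsp70 ATPase activity measured without cochaperone. Activity was normalized to reactions with no compound but an equal amount of DMSO. Values are the means of three independent experiments.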

The target of assay [3] is Large T antigen (Simian virus 40) (UniProt P03070). Put plainly: Inhibition of ATPase activity of SV40 T antigen expressed in baculovirus at 10 uM by antibody affinity chromatography relative to control. As to conditions: Betapolyomavirus macacae. The method in brief:
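Purified T antigen ATPase activity measured with test agent at a final concentration of 10 μM. Activity was normalized to reactions with no compound but an equal amount of DMSO. Values are the means of three independent experiments.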

SMILES strings stand for the structures.

For the molecule `CC1=C(C(=O)OCc2ccccc2)C(c2ccc(-c3ccccc3C)cc2)NC(=O)N1Cc1ccc(-c2nnn[nH]2)cc1` (stereo not drawn), the fold change (FC) with Homo sapiens [1] worked out at 4.3; in the assay listed under Homo sapiens [2], 1.2; in assay [3] it was 4.3.
